Patent publication US20210060030A1, “METHOD FOR TREATING CANCER” (Epizyme, Inc., priority 2014, published 2021)

Columns and labels:
[1] = system: EZH2 mutant lymphoma cells; assay: Killing of EZH2 mutant lymphoma cells; format: cell-based
[2] = human, in vivo
Method: Blood samples for PK and skin biopsies for PD analysis were collected. PD samples were stained with H3K27me3 specific antibody and percent change from baseline in H3K27Me3 positive cells was determined. PK/PD relationship was analyzed. Tumor assessments were performed every 8 weeks.
Doses administered were 100 mg BID as a suspension (n=3) or tablet (n=3) formulation and 200, 400, 800 and 1600 mg as tablet formulation.

[3] = system: mutant EZH2 or WT EZH2 germinal center lymphoma cell lines; assay: Combination with drugs that target the BCR/PI3K pathways in germinal center lymphoma cell lines; format: cell-based; conditions: cell lines harboring mutant EZH2 or WT EZH2 germinal center lymphoma cell lines

CCN(c1cc(-c2ccc(CN3CCOCC3)cc2)cc(C(=O)NCc2c(C)cc(C)[nH]c2=O)c1C)C1CCOCC1 [EPZ-6438]
effect on EZH2 mutant lymphoma cells [1]: killing
accumulation ratio (R=AUCD15/AUCD1) ([2]; 100 mg): approximately 74%
accumulation ratio (R=AUCD15/AUCD1) ([2]; 1600 mg): ~44%
effect of combination with drugs that target the BCR/PI3K pathways [3]: either additive or synergistic effects

Read-outs that look alike come from different tables or passages of the source.
